Assay results reported in patent US10709790B2, “Chemical conjugates of Evans Blue derivatives and their use in the production of long-acting therapeutics” (THE UNITED STATES OF AMERICA, AS REPRESENTED BY THE …, priority 2015, dated 2020).

What was measured:
[1] = Ex vivo biodistribution in mice bearing subcutaneous INS-1 tumors; details: 2 h after tracer injection, n = 4
[2] = Dynamic small animal PET imaging, time activity curves over the heart region; details: TACs over heart region, two-phase exponential fit, tail vein injection of 18F tracer

Q: Which “Biodistribution, Blood, Mean” value [1] does the source give for Exendin-4 here?
A: The value was 1.027 ID %/g.

Q: What about the “Biodistribution, Bone, Mean” value [1] of the same substance?
A: The value was 0.3805 ID %/g.

Q: What about the “Biodistribution, Heart, Mean” value [1] of the same substance?
A: The value was 0.5582 ID %/g.

Q: And the “Biodistribution, Liver, Mean” value [1]?
A: The value was 0.6143 ID %/g.

Q: What about the “Biodistribution, Lung, Mean” value [1] of the same substance?
A: Its value is 2.571 ID %/g.

Q: What about the “Biodistribution, Muscle, Mean” value [1] of the same substance?
A: The value was 0.2618 ID %/g.

Q: And the “Biodistribution, Spleen, Mean” value [1]?
A: Its value is 0.4688 ID %/g.

Q: And the “Biodistribution, intestin, Mean” value [1]?
A: The value was 0.9583 ID %/g.

Q: What about the “Biodistribution, kidney, Mean” value [1] of the same substance?
A: Its value is 7.684 ID %/g.

Q: And the “Biodistribution, pancreas, Mean” value [1]?
A: The value was 2.737 ID %/g.

Q: And the “Biodistribution, stomach, Mean” value [1]?
A: Its value is 1.218 ID %/g.

Q: And the “Biodistribution, Tumor, Mean” value ([1]; INS-1 tumor)?
A: Its value is 6.202 ID %/g.

Q: And the tα1/2 [2]?
A: Its tα1/2 is 0.07 h.
